Residue numbers refer to the chain shown, from its start. Each block holds one binder with its values, some of them ahead of it.
Legend:
[1] = biological target: T1, ECD-His tagged human ILT2 haplotype PE01 (human, UniProt Q8NHL6, in part); assay: SPR, ILT2 PE01 ECD-His, average of two measurements
T1 construct: also called Human ILT2 PE01 ECD; LILRB1/ILT2 PE01; not shown: His tag
Experimental: (§1) Briefly, SPR experiments were performed using a Biacore T200 instrument, and the association rate (Kₐ), dissociation rate (Kd), and dissociation constant (KD) were calculated from each experiment using a 1:1 binding model with Biacore™ T200 Evaluation Software. Capture of antibodies from the Human Fab Capture kit (28958325, GE Healthcare) to the Series S CM5 sensor chip (29149603, GE Healthcare) was performed using the immobilization wizard for amine coupling from the Biacore™ control panel and following the manufacturer's recommendations included with the kit.
Variants of irrelevant antibody VRC01 (with IgG1, IgG1 N297A, IgG4 S228P, IgG2, or IgG2 C127S constant regions) were used as negative isotype controls. The binding kinetics are shown in Table 5 as an average from two independent measurements.

Chains of the proteins cited; added tags and fusions are not shown. A line that says so, or that is headed by a name, gives the form on record, which may keep a tag or linker. Residues count along the entry.
UniProt Q8NHL6, 24-458: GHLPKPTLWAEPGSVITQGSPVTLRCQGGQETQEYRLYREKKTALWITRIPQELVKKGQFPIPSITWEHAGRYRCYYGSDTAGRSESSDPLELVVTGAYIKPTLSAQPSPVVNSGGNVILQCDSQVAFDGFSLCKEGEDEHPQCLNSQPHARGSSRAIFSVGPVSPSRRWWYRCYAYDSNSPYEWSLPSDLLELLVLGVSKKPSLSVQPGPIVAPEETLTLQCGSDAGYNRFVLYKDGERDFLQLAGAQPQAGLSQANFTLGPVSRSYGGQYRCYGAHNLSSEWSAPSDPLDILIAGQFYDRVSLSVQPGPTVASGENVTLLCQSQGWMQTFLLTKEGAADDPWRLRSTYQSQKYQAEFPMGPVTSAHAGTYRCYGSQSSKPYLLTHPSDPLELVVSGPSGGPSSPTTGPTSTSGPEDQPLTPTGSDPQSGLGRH
UniProt Q8NHL6, 24-482 limits assumed: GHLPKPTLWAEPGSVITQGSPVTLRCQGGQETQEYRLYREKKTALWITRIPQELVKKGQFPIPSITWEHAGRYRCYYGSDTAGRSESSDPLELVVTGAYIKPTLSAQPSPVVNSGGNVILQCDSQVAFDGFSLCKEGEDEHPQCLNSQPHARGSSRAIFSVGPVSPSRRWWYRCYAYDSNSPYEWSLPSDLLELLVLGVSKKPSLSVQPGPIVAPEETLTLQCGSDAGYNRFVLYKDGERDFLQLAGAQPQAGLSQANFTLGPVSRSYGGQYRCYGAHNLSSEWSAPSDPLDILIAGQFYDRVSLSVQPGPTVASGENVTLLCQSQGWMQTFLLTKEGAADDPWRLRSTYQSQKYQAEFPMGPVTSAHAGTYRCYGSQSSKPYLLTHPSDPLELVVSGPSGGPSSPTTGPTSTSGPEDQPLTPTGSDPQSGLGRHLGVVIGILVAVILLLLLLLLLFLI
UniProt Q8NHL6, 24-650: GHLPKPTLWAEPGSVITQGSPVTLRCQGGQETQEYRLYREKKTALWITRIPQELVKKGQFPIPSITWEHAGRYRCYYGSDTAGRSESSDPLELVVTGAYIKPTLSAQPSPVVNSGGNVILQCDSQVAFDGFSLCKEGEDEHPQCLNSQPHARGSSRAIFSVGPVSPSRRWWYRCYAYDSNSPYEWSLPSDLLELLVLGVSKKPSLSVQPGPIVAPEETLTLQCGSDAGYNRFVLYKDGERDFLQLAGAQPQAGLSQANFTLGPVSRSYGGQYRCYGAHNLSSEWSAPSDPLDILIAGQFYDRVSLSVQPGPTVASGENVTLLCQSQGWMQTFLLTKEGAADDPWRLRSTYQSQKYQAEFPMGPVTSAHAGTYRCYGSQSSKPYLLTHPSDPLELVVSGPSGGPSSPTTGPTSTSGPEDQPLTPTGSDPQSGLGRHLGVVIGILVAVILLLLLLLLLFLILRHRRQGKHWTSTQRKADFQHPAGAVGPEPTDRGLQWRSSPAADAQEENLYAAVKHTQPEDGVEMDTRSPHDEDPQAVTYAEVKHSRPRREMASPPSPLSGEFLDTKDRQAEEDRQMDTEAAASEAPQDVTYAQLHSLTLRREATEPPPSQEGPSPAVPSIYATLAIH
ECD-His tagged human ILT2 haplotype PE02, UniProt Q8NHL6, other isoform, or with tags, fused parts or gaps: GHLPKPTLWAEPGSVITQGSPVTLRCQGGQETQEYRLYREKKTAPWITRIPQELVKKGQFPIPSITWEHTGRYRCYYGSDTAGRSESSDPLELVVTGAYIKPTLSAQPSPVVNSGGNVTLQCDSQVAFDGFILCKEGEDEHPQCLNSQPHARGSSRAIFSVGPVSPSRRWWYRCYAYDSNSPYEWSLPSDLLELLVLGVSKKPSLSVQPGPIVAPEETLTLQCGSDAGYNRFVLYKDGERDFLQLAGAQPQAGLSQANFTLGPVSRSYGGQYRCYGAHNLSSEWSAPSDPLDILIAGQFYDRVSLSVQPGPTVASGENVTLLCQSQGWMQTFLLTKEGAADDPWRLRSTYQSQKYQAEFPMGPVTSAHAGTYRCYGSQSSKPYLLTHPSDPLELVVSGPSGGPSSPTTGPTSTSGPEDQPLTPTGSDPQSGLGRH
ECD-His tagged human ILT2 haplotype PE03, UniProt Q8NHL6, other isoform, or with tags, fused parts or gaps: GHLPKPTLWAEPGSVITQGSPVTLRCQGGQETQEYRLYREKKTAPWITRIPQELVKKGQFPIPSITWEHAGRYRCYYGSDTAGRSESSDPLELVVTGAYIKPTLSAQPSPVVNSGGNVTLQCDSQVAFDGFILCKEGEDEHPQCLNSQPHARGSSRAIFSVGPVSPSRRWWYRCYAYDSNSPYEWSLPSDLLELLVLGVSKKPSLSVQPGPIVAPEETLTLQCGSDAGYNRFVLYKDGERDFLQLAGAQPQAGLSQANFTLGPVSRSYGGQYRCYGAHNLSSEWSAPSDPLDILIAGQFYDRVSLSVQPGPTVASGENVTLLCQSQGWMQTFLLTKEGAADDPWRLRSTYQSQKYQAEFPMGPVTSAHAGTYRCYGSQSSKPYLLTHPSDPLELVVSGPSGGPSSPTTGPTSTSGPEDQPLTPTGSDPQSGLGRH

[2] = biological target: T2, human ILT2 extracellular and transmembrane domains expressed on CHO cells (human, UniProt Q8NHL6, in part); assay: flow cytometry, CHO cells with high human ILT2
T2 construct: domain: extracellular and transmembrane domains; which one is told under assay; also called CHO cells expressing human ILT2 (relatively low or relatively high level); CHO-ILT2 cells
Experimental: For the antibody binding assay, the cells were seeded in a 96-well U-bottom tissue culture plate at a density of 3×10⁵ cells per well in 25 μL of PBS supplemented with 0.5% BSA, 1 mM EDTA and 0.05% sodium azide (FACS Buffer). The cells were incubated for 30 minutes at 4° C. with […] of a series dilution of anti-ILT2 antibodies or isotype control at concentrations from 10 μg/mL to 2.4 ng/mL in FACS Buffer.
After a 30-minute incubation in the dark at 4° C., the cells were washed twice with cold FACS Buffer, and the cells were analyzed by flow cytometry (BD LSR Fortessa Flow Cytometer). CHO-ILT2 cells were identified and MFI was calculated as above.

[3] = biological target: T2, human ILT2 extracellular and …; assay: flow cytometry, CHO cells with low human ILT2
Experimental: For the antibody binding assay, the cells were seeded in a 96-well U-bottom tissue culture plate at a density of 3×10⁵ cells per well in 25 μL of PBS supplemented with 0.5% BSA, 1 mM EDTA and 0.05% sodium azide (FACS Buffer). The cells were incubated for 30 minutes at 4° C. with 25 μL of a series dilution of anti-ILT2 antibodies or isotype control, at final concentrations ranging from 10 μg/mL to 0.2 ng/mL in FACS Buffer.
After a 30-minute incubation in the dark at 4° C., the cells were washed twice with cold FACS Buffer, and the cells were analyzed by flow cytometry (BD LSR Fortessa Flow Cytometer). CHO cells were identified using a plot of forward scatter-area (FSC-A) versus side scatter area (SSC-A) and another plot of FSC-A versus forward scatter-height (FSC-H) for selection of single cells. Samples were analyzed by sequentially gating on the single cell population and plotting histograms representing the fluorescence in the PE channel. For each sample, mean fluorescence intensity (MFI) was calculated, and the data were plotted by GraphPad Prism software.

[4] = biological target: T3, full-length ILT2 expressed on Jurkat cells (human, UniProt Q8NHL6); assay: flow cytometry, Jurkat cells expressing human ILT2
T3 construct: whole, on cells; The Jurkat line also carries FcgRIIIa and an NFAT-luciferase reporter (Promega/G7102); also called Jurkat cells expressing human ILT2; ILT2-expressing Jurkat reporter cells

[5] = biological target: T1, ECD-His tagged human ILT2 haplotype PE01; assay: SPR, captured antibody, ILT2 ECD-His analyte
Experimental: (§2) The binding affinity of anti-ILT2 antibody variants with IgG1 N297A constant regions to ECD-His tagged human ILT2 haplotypes PE01, PE02, PE03 (see Table 1) was assessed by surface plasmon resonance (SPR).
as §1
(§3) Approximately 3 μg/mL of tested anti-ILT2 antibodies and controls diluted in a running buffer (10 mM HEPES, 150 mM NaCl, 3 mM EDTA, and 0.05% surfactant P20) were captured in individual flow cells of previously prepared anti Human Fab CM5 chip, keeping a single flow cell as a reference. Antibodies were captured using a 30 sec injection at a flow rate of 10 μL/min to reach about 150 resonance units (Rus). Human ILT2 ECD PE01 (diluted in the running buffer at the concentration of 30, 10, 3.3, 1.11, 0.37, 0.12 nM), and human ILT2 ECD PE02 and PE03 (diluted in the running buffer at the concentration of 33.3, 11.1, 3.7, 1.2, 0.41, 0.14 nM), were flowed over the chip surface at a flow rate of 30 μL/min with a 3-min association phase and a 10-min dissociation phase. The sensor chip was regenerated between cycles with a double 30-sec injection of 10 mM glycine, pH 2.1 at 30 μL/min followed by stabilization period of 60s. Sensorgrams were evaluated and fit to a simple Langmuir 1:1 interaction model using the global data analysis option of BIAevaluation 3.1 software. Data quality was verified by visually inspecting deviations and curve fitting, and by evaluating the parameters of Rₘₐₓ, Chi2, and Tc.

[6] = biological target: T4, ECD-His tagged human ILT2 haplotype PE02 (human, UniProt Q8NHL6, in part); assay: SPR, captured antibody, ILT2 ECD-His analyte
T4 construct: also called Human ILT2 PE02 ECD; not shown: His tag
Experimental: as §2, §1, §3

[7] = biological target: T5, ECD-His tagged human ILT2 haplotype PE03 (human, UniProt Q8NHL6, in part); assay: SPR, captured antibody, ILT2 ECD-His analyte
T5 construct: also called Human ILT2 PE03 ECD (Sino biological, 16014-H08H); not shown: His tag
Experimental: as §2, §1, §3

Kd [1]: 0.065 nM | koff [1]: 5.1e-05 s⁻¹ | kon [1]: 970000 M⁻¹ s⁻¹ | AUC [2]: 373000 | EC50 [2]: 0.115 µg/mL
B1: BA222 (antibody, human IgG4 S228P, kappa)
heavy: QVQLVQSGAEVKKPGASVKVSCKASGYTFNRYYMHWVRQAPGQGLEWMGWINPYTGGTNYAQKFQGRVTMTRDTSISTAYMELSRLRSDDTAVYYCASKQPSSDYWGQGTLVTVSSASTKGPSVFPLAPCSRSTSESTAALGCLVKDYFPEPVTVSWNSGALTSGVHTFPAVLQSSGLYSLSSVVTVPSSSLGTKTYTCNVDHKPSNTKVDKRVESKYGPPCPPCPAPEFLGGPSVFLFPPKPKDTLMISRTPEVTCVVVDVSQEDPEVQFNWYVDGVEVHNAKTKPREEQFNSTYRVVSVLTVLHQDWLNGKEYKCKVSNKGLPSSIEKTISKAKGQPREPQVYTLPPSQEEMTKNQVSLTCLVKGFYPSDIAVEWESNGQPENNYKTTPPVLDSDGSFFLYSRLTVDKSRWQEGNVFSCSVMHEALHNHYTQKSLSLSLGK
light: DIVMTQSPLSLPVTPGEPASISCRSSQSLLHSNYYNYLDWYLQKPGQSPQLLIYLGSNRASGVPDRFSGSGSGTDFTLKISRVEAEDVGVYYCLQASQAPWTFGQGTKVEIKRTVAAPSVFIFPPSDEQLKSGTASVVCLLNNFYPREAKVQWKVDNALQSGNSQESVTEQDSKDSTYSLSSTLTLSKADYEKHKVYACEVTHQGLSSPVTKSFNRGEC

Kd [1]: 0.11 nM | koff [1]: 4.8e-05 s⁻¹ | kon [1]: 430000 M⁻¹ s⁻¹ | AUC [2]: 384000 | EC50 [2]: 0.087 µg/mL
B2: BA250 (antibody, human IgG1, kappa)
heavy: QVQLVQSGAEVKKPGASVKVSCKASGYTFNRYYMHWVRQAPGQGLEWMGWINPYTGGTNYAQKFQGRVTMTRDTSISTAYMELSRLRSDDTAVYYCASKQPSSDYWGQGTLVTVSSASTKGPSVFPLAPSSKSTSGGTAALGCLVKDYFPEPVTVSWNSGALTSGVHTFPAVLQSSGLYSLSSVVTVPSSSLGTQTYICNVNHKPSNTKVDKRV[letters of human IgG1 Fc omitted]
light: B1 light

Kd [1]: 0.13 nM | koff [1]: 4.8e-05 s⁻¹ | kon [1]: 380000 M⁻¹ s⁻¹ | AUC [2]: 349000 | EC50 [2]: 0.117 µg/mL
B3: BA249 (antibody, human IgG1, kappa)
heavy: B2 heavy
light: B1 light with Y34T

Kd [1]: 0.13 nM | koff [1]: 5.4e-05 s⁻¹ | kon [1]: 430000 M⁻¹ s⁻¹ | AUC [3]: 14300 | EC50 [3]: 0.449 µg/mL | AUC [4]: 173000 | EC50 [4]: 0.096 µg/mL | Kd [5]: 0.003 nM | koff [5]: 9.6e-07 s⁻¹ | kon [5]: 280000 M⁻¹ s⁻¹ | Kd [6]: 0.541 nM | koff [6]: 0.00012 s⁻¹ | kon [6]: 230000 M⁻¹ s⁻¹ | Kd [7]: 0.216 nM | koff [7]: 0.00011 s⁻¹ | kon [7]: 490000 M⁻¹ s⁻¹ | AUC [2]: 392000 | EC50 [2]: 0.082 µg/mL
B4: BA215 (antibody, human IgG1, kappa)
heavy: QVQLVQSGAEVKKPGASVKVSCKASGYTFNRYYMHWVRQAPGQGLEWMGWINPYTGGTNYAQKFQGRVTMTRDTSISTAYMELSRLRSDDTAVYYCASKQPSSDYWGQGTLVTVSSASTKGPSVFPLAPSSKSTSGGTAALGCLVKDYFPEPVTVSWNSGALTSGVHTFPAVLQSSGLYSLSSVVTVPSSSLGTQTYICNVNHKPSNTKVDKRV[letters of human IgG1 Fc with changes omitted]
light: B1 light
